# Assay results taken from patent US6534289B1, “Nucleic acids encoding mGLuR/CaR chimera” (NPS Pharmaceuticals, Inc., priority 1995, dated 2003).
# Amino acid sequences for entries named in this document (tags omitted). A change or cut given only in a name is not applied to a line headed by its entry. Chains listed by the source or under a name are the forms on record and can include a tag or linker.
# mGluR1/CaR (UniProt P23385+P41180), UniProt P23385+P41180, fused: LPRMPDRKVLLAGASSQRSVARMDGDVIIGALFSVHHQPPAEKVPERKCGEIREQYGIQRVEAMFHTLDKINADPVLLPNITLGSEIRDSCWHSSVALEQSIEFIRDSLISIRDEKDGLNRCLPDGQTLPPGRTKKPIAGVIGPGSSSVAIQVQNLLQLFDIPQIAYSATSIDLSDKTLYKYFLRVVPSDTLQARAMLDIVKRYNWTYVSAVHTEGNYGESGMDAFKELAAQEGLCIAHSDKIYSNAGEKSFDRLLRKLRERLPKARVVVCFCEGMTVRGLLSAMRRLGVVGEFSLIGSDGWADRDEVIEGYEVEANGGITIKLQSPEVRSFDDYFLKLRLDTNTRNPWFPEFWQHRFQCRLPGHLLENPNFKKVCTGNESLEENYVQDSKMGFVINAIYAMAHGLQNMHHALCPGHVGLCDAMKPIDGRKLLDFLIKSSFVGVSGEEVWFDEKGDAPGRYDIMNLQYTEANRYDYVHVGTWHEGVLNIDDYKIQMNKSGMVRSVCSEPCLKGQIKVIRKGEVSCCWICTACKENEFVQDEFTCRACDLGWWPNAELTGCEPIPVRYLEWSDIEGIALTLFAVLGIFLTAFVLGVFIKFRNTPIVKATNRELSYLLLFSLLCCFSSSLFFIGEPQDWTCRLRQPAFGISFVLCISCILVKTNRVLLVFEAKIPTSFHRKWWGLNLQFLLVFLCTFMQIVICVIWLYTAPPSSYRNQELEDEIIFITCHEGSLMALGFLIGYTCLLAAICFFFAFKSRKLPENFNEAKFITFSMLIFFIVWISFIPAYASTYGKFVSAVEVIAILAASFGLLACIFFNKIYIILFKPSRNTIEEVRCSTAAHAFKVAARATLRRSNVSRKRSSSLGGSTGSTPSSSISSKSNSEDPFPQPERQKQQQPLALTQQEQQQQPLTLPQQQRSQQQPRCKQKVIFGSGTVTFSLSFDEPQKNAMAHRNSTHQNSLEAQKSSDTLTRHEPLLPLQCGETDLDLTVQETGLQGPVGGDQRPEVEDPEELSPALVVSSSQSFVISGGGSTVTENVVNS
# ratCH3 (UniProt P23385+P41180), UniProt P23385+P41180, fused: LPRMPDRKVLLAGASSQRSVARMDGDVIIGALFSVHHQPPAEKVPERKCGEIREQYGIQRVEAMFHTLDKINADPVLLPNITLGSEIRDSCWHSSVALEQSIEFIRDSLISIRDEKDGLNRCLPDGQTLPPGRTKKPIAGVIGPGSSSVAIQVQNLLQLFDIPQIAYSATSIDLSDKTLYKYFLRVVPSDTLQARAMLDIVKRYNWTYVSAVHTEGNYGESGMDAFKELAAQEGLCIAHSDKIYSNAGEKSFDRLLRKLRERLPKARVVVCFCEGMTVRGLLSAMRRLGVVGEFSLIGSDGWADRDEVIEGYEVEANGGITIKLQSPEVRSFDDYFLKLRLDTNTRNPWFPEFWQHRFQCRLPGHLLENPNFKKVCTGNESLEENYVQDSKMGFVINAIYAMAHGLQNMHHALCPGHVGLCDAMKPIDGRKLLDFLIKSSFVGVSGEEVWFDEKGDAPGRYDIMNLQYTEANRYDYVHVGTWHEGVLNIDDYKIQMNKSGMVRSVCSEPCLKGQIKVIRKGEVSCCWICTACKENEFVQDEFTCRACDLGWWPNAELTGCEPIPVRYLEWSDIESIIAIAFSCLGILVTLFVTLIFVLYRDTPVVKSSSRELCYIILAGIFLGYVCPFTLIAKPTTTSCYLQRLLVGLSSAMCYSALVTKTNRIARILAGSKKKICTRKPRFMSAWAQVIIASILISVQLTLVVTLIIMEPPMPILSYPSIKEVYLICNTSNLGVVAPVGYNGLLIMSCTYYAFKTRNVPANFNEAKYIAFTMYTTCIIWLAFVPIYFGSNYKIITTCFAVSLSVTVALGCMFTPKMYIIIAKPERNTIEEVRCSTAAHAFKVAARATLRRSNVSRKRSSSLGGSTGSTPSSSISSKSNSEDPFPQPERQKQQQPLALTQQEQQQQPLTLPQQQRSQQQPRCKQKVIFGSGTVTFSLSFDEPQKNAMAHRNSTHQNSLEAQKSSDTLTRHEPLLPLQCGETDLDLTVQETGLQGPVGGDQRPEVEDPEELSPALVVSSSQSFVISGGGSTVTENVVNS
# UniProt P23385: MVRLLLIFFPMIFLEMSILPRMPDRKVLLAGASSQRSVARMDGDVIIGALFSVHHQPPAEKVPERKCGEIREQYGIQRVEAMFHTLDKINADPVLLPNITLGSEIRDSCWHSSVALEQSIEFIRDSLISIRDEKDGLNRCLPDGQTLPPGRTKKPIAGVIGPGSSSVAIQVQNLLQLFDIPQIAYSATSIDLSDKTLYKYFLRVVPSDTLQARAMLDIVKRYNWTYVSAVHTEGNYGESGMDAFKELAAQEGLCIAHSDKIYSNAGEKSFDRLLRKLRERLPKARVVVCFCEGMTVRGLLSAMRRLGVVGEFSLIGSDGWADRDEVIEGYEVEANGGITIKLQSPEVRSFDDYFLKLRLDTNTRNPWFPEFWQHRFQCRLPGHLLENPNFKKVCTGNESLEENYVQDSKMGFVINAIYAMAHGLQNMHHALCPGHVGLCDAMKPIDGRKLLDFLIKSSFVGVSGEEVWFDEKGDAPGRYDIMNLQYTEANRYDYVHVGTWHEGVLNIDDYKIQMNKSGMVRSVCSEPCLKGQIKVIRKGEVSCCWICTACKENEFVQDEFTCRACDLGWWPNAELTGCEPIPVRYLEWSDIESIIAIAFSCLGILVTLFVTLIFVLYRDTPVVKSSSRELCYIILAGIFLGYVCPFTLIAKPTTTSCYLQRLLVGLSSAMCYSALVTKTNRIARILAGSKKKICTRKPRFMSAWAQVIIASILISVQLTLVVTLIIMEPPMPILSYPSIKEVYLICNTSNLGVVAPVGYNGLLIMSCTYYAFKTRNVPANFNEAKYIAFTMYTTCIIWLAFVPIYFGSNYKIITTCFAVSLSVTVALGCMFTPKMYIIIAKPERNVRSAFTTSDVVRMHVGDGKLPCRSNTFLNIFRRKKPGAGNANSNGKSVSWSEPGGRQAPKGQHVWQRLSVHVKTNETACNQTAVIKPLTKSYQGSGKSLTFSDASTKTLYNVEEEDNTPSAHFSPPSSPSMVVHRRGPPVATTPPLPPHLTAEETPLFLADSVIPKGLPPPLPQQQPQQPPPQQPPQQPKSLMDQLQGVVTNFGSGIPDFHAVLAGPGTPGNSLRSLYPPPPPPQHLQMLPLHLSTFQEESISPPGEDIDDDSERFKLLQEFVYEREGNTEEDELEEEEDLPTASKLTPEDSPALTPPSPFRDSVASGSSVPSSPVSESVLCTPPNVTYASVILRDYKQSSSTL
# UniProt P41180: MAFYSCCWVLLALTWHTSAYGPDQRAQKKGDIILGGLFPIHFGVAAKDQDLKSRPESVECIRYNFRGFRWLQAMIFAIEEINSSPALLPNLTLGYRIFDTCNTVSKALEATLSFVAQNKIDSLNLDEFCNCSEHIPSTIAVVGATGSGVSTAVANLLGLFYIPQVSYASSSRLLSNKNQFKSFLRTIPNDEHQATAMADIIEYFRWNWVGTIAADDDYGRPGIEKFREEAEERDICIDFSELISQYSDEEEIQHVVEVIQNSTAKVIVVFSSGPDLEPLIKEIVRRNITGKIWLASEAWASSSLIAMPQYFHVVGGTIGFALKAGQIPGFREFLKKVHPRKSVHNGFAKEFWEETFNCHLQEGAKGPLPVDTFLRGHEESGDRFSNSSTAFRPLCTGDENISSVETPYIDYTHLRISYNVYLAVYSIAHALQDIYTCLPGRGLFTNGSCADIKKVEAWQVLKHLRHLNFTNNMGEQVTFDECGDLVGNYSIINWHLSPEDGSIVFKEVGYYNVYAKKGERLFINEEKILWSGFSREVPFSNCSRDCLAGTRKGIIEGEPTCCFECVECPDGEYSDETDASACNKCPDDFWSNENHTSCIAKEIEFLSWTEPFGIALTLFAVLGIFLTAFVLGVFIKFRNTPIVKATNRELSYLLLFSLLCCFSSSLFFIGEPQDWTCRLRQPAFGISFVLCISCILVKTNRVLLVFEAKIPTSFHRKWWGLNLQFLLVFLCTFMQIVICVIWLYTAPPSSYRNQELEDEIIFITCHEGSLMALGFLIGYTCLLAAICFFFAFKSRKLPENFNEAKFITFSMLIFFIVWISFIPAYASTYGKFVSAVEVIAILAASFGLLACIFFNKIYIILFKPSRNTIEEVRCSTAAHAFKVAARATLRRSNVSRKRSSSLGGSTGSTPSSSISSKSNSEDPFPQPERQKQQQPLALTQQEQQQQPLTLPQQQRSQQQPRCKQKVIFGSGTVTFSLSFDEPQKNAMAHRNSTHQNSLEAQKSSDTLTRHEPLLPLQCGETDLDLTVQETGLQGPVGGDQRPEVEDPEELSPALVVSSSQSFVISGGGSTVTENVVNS
# Experiments:
# mGluR1/CaR = biological target: T1, mGluR1/CaR (UniProt P23385+P41180); assay: Xenopus oocyte voltage clamp, Cl− currents, mGluR1/CaR chimera; assay type: cell-based, rat mGluR1 / human calcium receptor; conditions: FIG. 6
# T1 construct: expressed in transfected cells; host or cells: Xenopus laevis oocytes injected with in vitro transcribed RNA
# ratCH3 = biological target: T2, ratCH3 (UniProt P23385+P41180); assay: Xenopus oocyte voltage clamp, Cl− currents, ratCH3 chimera; assay type: cell-based, rat mGluR1 / human calcium receptor; conditions: Xenopus oocytes injected with ratCH3 RNA, FIG. 8C
# T2 construct: expressed in transfected cells; host or cells: Xenopus laevis oocytes injected with in vitro transcribed RNA
compound,measurement,setting,value
N[C@@H](CCC(=O)O)C(=O)O [l-glutamate],activation of mGluR1/CaR as measured by Cl− currents generated in response to the release of intracellular Ca^2+,mGluR1/CaR,activation
same,Cl− current,ratCH3,elicits oscillatory increases in Cl− current
